Experimental data: PubChem BioAssay AID624297 (National Center for Advancing Translational Sciences (NCATS), 2012)
The entries are a selection whose mix differs from that of the whole data set. Records with an inconclusive call do not appear. Entries that show only a call come without a potency. Calls of active or inactive are those of the source. Calls follow the shape of the dose curve; as a rule, active = well fitted activation curve with a large enough effect; inconclusive = small, poorly fitted or top-dose-only effect; inactive = no such curve, though single readings can be large or run the other way.

Assay: A quantitative high throughput screen for small molecules that induce DNA re-replication in SW480 colon adenocarcinoma cells. Also: nearly all actives have a fitted effect of over 55% in size.
Details: Hoechst DNA content imaging, 48 h; series mostly up to 46.1 µM
Potency is read from the fitted curve at half-maximal effect.

Row | SMILES | Potency | re-replication activation
1 | Clc1n[nH]nc1-c1nn[nH][15n]1 | inactive | –
2 | COc1ccccc1CNC(=O)COC(=O)C(O)(c1ccccc1)c1ccccc1 | inactive | –
3 | CC1(CBr)Cn2c(nc3ccccc3c2=O)S1 (configuration not stated) | – | inactive: -6.45% [at 9.22 µM]
4 | CN(C(=O)Cc1ccc(Cl)c(Cl)c1)[C@@H]1CCCC[C@H]1N1CCCC1 | inactive | –
5 | CC(C)/C=N\N=C(\N)N[N+](=O)[O-] | inactive | –
6 | COP1(=S)c2c(C)nn(CCC#N)c2N=C(c2ccc(F)cc2)N1C (configuration not stated) | inactive | –
7 | O=C(Nc1ccncc1[N+](=O)[O-])c1ccc([N+](=O)[O-])cc1[N+](=O)[O-] | inactive | –
8 | O=C(COc1ccccc1)OC1CN2CCC1CC2 (configuration not stated) | inactive | –
9 | O=C(OC1CN2CCC1CC2)c1cccc([N+](=O)[O-])c1 (configuration not stated) | inactive | –
10 | CCC(C)N(CC(C)C)C(=S)SC(NC(C)=O)C(Cl)(Cl)Cl (configuration not stated) | inactive | –
11 | CC1CCNP(=O)(N(CCCl)CCCl)O1 (configuration not stated) | inactive | –
12 | CCOC(=O)Nc1ccc([As](=O)(O)O)c(O)c1 | inactive | –
13 | Cc1cc(SC(NC(=O)c2ccccc2)C(Cl)(Cl)Cl)nc(C(C)C)n1 (configuration not stated) | inactive | –
14 | CCCCOc1ccc(C(=O)NCC2(N3CCCCC3)CCCCC2)cc1OC | inactive | –
15 | CCOC(=O)Nc1cccc([As](=O)(O)O)c1 | inactive | –
16 | O=[N+]([O-])c1ccc(Nc2ccc(Oc3ccc([N+](=O)[O-])cc3[N+](=O)[O-])cc2)c([N+](=O)[O-])c1 | inactive | –
17 | Cc1cc(SC(NC=O)C(Cl)(Cl)Cl)ncn1 (configuration not stated) | inactive | –
18 | O=P(Nc1ccccn1)(c1cccc2ccccc12)c1cccc2ccccc12 | inactive | –
19 | COc1cc(C(=O)NCC2(N3CCOCC3)CCCCC2)ccc1OCC(C)C | inactive | –

Row | SMILES | Potency | re-replication activation
20 | O=[N+]([O-])c1ccc(-c2cc([N+](=O)[O-])c(O)c([N+](=O)[O-])c2)cc1 | inactive | –
21 | O=[As](O)(c1ccc(O)cc1)c1ccccc1O | inactive | –
22 | C[As](=O)(O)c1cccc(C(=O)O)c1 | inactive | –
23 | Cc1ccc(OP(=O)(Nc2ccc([N+](=O)[O-])cn2)Oc2ccc(C)cc2)cc1 | inactive | –
24 | CC(C)c1ccc(OP(=O)(Nc2ccccn2)Oc2ccccc2F)cc1 (configuration not stated) | inactive | –
25 | COC(=O)C1(C)COP(=O)(N2CCCCCC2)OC1 (configuration not stated) | inactive | –
26 | ClCCSc1nnc(-c2cccnc2)o1 | inactive | –
27 | O=C(OC1CN2CCC1CC2)c1cccc2[nH]cnc12 (configuration not stated) | inactive | –
28 | CCN(CC)C(=S)SC(NC=O)C(Cl)(Cl)Cl (configuration not stated) | active: 10.3 µM | –
29 | CC(C)NC(=O)NP(=O)(Oc1ccccc1)Oc1ccccc1 | inactive | –
30 | Cc1cc(=O)[nH]c(N[N+](=O)[O-])n1 | inactive | –
31 | O=C(OC1CN2CCC1CC2)C12CC3CC(CC(C3)C1)C2 (configuration not stated) | inactive | –
32 | COc1cc(I)ccc1[As](=O)(O)O | inactive | –
33 | COc1ccc2nc(NP(=O)(c3ccccc3)c3ccccc3)sc2c1 | inactive | –
34 | O=P1(N(CCCl)CCCl)OCCCN1CCCl (configuration not stated) | inactive | –
35 | O=P1(N(CCCl)CCCl)Nc2ccccc2N1 | inactive | –
36 | COc1ccc(N/C(=N/P(=O)(N2CCOCC2)N2CCOCC2)N2CCOCC2)cc1 | inactive | –
37 | O=[N+]([O-])c1cc(Oc2ccc([N+](=O)[O-])cc2C(F)(F)F)cc([N+](=O)[O-])c1 | inactive | –
